Broadly, the IC50 is the concentration needed to halve the response being measured.

Experimental findings from patent publication EP0903346A1, “SYDNONE IMINE DERIVATIVES” (Chugai Seiyaku Kabushiki Kaisha, priority 1995, dated 1997) are described below.

The assay concerns isolated rat aorta. Briefly: Test with the use of isolated rat aorta (relaxation of potassium chloride contraction). The conditions noted are these: read-out: Rat aorta IC50. Here is the method:
The thoracic aorta was taken out from male Sprague Dawley rats weighing 450 to 600 g and cut into circular samples of 2 mm in width. […] The contraction reactions of the samples were isometrically recorded with FD pick-up. After 1 to 1.5 hours of equilibration, 30 mM potassium chloride was added to contract the tissue. […] As the test compounds, the invention compounds obtained in the above Examples were employed.

Regarding `CC(=O)SC[C@@H](C)C(=O)[N-]c1c[n+](N2CCN(CCSc3cc(C(C)(C)C)c(O)c(C(C)(C)C)c3)CC2)no1` [Example 44, N-((S)-3-(Acetylthio)isobutyryl)-3-(4-(2-(3,5-di-t-butyl-4-hydroxyphenylthio)ethyl)piperazin-1-yl)sydnonimine], the IC50 came out at 980 nM.
